scFv variants of Ab-14 (light chain) against a SARS-CoV-2 spike peptide

Reference: Li et al. 2023, doi:10.1038/s41467-023-39022-2. File: FLAb, binding data.

Target: peptide PDVDLGDISGINAS, taken from heptad repeat 2 (HR2) of SARS-CoV-2 spike.

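The parent was found by panning a naive human phage display library on the peptide. These sequences belong to a second round, designed from the earlier measurements on random variants of the parent. Several design methods are mixed in this list. AlphaSeq pools MATa yeast showing the antibodies with MATalpha yeast showing the peptide. Binding brings cells together so that they mate, and sequencing counts the barcode pairs among the diploids. A regression on co-assayed BCL2-family reference pairs converts the normalised counts of each replicate to an apparent Kd. The assay was run in six technical replicates.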

Parent: Ab-14, a human scFv built as VH, three GGGGS repeats, VL. Only the CDRs of the light chain vary.
VH: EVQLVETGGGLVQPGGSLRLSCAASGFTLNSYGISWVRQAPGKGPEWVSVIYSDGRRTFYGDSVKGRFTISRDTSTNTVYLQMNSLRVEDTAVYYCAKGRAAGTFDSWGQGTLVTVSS
VL: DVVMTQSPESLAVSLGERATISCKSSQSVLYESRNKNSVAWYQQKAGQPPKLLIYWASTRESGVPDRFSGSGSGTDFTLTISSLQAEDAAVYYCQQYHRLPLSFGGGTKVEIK

Variants are written as CDR1, CDR2 and CDR3 of the light chain (limits as in the source). Parent: KSSQSVLYESRNKNSVA, WASTRES, QQYHRLPLS. Numbers give log10(Kd / nM), so 0 is 1 nM and 3 is 1 µM. Smaller is tighter. Averages over replicates are reported, and they cover detected replicates only. Where no diploid with the target was found in any replicate, the entry reads "nd": below detection, most likely a poor binder, though not proof of it. The parent sequence was in this pool as ten entries: three were never detected, three once, and four in most replicates, with averages from 0.34 to 2.37.

For KLSQSTLFFGHAINSVA | EMETREN | QQYDRLPLS, the assay gave 0.65 (6 of 6 replicates).
For KLYQVTTEHGAALNNIA | EGARRND | QQYARLPLV, the assay gave 0.40 (6 of 6 replicates).
For HLSQSVLYESRNKNNVA | NASTRES | QQYHRLPLS, the assay gave -0.47 (6 of 6 replicates).
For KVSQSDNYESRNHNSVA | HASTRSS | QQYHRLPLS, the assay gave 0.46 (6 of 6 replicates).
For KVQQSWEYESRNKNNVA | MGSTRED | QQYHRLPLS, the assay gave -0.52 (6 of 6 replicates).
For KLKELFNMWARAQGNVA | DATERCT | QQYSRLPIC, the assay gave 0.40 (6 of 6 replicates).
For KSSQSVLDESVNKNSVA | WASTRES | QQYHKLPLS, the assay gave 1.33 (6 of 6 replicates).
For MFSQLVYTGSRARNAVA | QASTREN | QQYHRLPLS, the assay gave 1.85 (5 of 6 replicates).
For QIYQAMHTLSQHKDNVA | DVNERGS | QQYFRLPLS, the assay gave 0.27 (6 of 6 replicates).
For KSSQSVGYESDNTNSVA | WNSTRES | QQYHRLPLS, the assay gave nd (0 of 6 replicates).
For KIGATLNTLSHKQNNVA | DLVTREN | QQYFRLPLS, the assay gave -0.06 (6 of 6 replicates).
For KLRQVTGYESYLRNSVA | QTSTRAS | QDYHRLPLS, the assay gave 1.27 (6 of 6 replicates).
For KLQQSNLYESRNKNNVA | EATLREQ | QQYHRLPLS, the assay gave -0.51 (6 of 6 replicates).
For KMSQSVLYESRNKNSVA | WASERES | QQYNRLPLS, the assay gave 0.18 (6 of 6 replicates).
For KHSDSVLYESRNKNSVA | WASTRES | QQYHRLPLS, the assay gave 1.73 (4 of 6 replicates).
For KFSQSQGYESRNKNSVA | NASTRES | QQYHRLPLS, the assay gave 0.13 (6 of 6 replicates).
For KSSWSVLFESRNKNSVA | DASTRMS | QQYHRLPLS, the assay gave 0.40 (6 of 6 replicates).
For MSSQSVLYEARNKNSVA | SASTRES | QQYHRLPLS, the assay gave 1.79 (5 of 6 replicates).
For KLSQSVLYESRNKNNVA | HASTREQ | QQYHRLPLS, the assay gave -0.19 (6 of 6 replicates).

Further variants, results first:

Result 1.16 (6 of 6 replicates), variant HMHTLMYTENIGENSIA | DANLHVD | QQYFRLPIS.
Result 1.97 (2 of 6 replicates), variant KSCQSVLYESRNPNSVA | WASTRES | QQYHRLPLW.
Result 1.38 (6 of 6 replicates), variant KISMMYRFEQTASNNIA | EMTTRAE | QSYHRLPLA.
Result 1.31 (6 of 6 replicates), variant SLHLYTNVEENNNNSIA | EKSYRAY | QQYAHLPLV.
Result 2.41 (5 of 6 replicates), variant KLSQFYRMESRNKNAVA | DNSTRES | QCYDRLPLS.
Result 0.81 (6 of 6 replicates), variant HMSMLTLQGMRMRNSVA | QMTTREN | QQYDHLPLA.
Result -0.12 (6 of 6 replicates), variant KLMQSVQYESRNQNAVA | EASQRES | QQYHRLPLS.
Result 1.44 (6 of 6 replicates), variant KFAYQADMYGAQCNNVA | HADIREP | QQYFKLPLT.
Result 2.45 (15 of 30 replicates), variant KPSQSVLYESENENSVA | WASTRES | QQYHRLPLS.
Result 0.66 (6 of 6 replicates), variant RLSTEHTGYGKMMNNIA | QGSTKQF | QQYDRLPLH.
Result 0.78 (6 of 6 replicates), variant KLLQNTGVGYRWAQNVA | HMSTRED | QQYHRLPFV.
Result 1.31 (6 of 6 replicates), variant KSSQSVLYESRKKNSVA | EASTRES | QQYHALPLS.
Result 0.91 (6 of 6 replicates), variant KISQSVLYESVNKNSVA | YASTRES | QQYHRLPLS.
Result 2.09 (6 of 6 replicates), variant KISQMTRVGSTHHNSIA | EEATRAK | QQYHRLPLA.
Result 3.37 (4 of 6 replicates), variant KSSQSVLQESRNKNSVA | WASTRSS | QQYHRLPLS.
Result 0.74 (6 of 6 replicates), variant KSSQSVLYESRNDNSVA | GASTRES | QQYHRLPLS.
Result nd (0 of 6 replicates), variant KSSQSVLYESRVKNSVA | WASTRES | QQYHRLPLG.
Result 0.65 (6 of 6 replicates), variant KSSQSVLYESSNYNSVA | AASTRES | QQYHRLPLS.
Result 0.83 (6 of 6 replicates), variant KMSQSWLGQSWNKNSVA | NASQREH | QQYHRLPLS.

Some sequences occur more than once in the pool; their replicates are pooled. Three control strains display no target. For all light chain designs, 4% of the pairings with them gave a signal, with a median of 2.64 and one signal in twenty below 1.59, so weak values seen in few replicates may be background. A sequence measured in both rounds can read differently, since the two assays cover different ranges. The authors' rule: three or more of the six replicates give a measured affinity, fewer mean a poor binder.